In ChEMBL document CHEMBL1130592, “The synthesis and biological activity of a novel series of diazepine MMP inhibitors” (Bioorg Med Chem Lett, 1998):

Biological target: T1, Interstitial collagenase (Homo sapiens, UniProt P03956)
T1 sequence (P03956 whole entry): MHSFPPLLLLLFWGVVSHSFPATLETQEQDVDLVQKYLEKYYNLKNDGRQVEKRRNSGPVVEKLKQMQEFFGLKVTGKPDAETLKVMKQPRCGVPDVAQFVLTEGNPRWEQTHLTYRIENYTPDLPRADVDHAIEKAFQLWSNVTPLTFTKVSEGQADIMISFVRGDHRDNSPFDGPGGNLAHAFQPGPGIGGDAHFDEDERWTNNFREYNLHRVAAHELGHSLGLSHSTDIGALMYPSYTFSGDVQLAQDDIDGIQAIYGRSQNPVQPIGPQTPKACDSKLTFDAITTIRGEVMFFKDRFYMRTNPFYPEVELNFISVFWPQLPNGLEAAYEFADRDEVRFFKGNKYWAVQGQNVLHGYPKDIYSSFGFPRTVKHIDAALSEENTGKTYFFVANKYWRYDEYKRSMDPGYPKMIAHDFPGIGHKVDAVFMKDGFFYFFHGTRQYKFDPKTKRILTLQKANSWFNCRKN
Experiment: Inhibition of matrix metalloprotease-1 (MMP-1)

pIC50: 7.82
Compound: COc1ccc(S(=O)(=O)N(Cc2cccnc2)[C@@H](C(=O)NO)C(C)C)cc1 [CGS-27023A]

pIC50: −log10 of the molar value.
